Laboratory results as given in article PMC4467128 (Oncotarget, 2014).

How the values were obtained:
[1] = system: p-Akt (S473) in BJAB cells; assay: Cell-based ELISA for p-Akt (S473), BJAB; design: species or system human
Protocol: After the treatment, cells were lysed with ice-cold lysis buffer mentioned above and equivalent aliquots of protein were subjected to a PathScan phospho-Akt1 (Ser473) sandwich ELISA kit (Cell Signaling Technology) following manufacture's instruction. In briefly, whole cell lysate was first half-diluted with sample diluent and added 100 μl into the well incubating overnight at 4°C. After the reaction, wells were washed 4 times with 200 μl wash buffer and then added 100 μl of Akt1 mouse detection antibody incubating 1 h at 37°C. Washed 4 times again and then added 100 μl of anti-mouse IgG HRP-linked antibody incubating 30 min at 37°C. After incubation, washed the well once again and then added 100 μl TMB substrate for color production and finally added 100 μl STOP solution. The results were measured by spectrophotometer at wavelength 450 nm.

[2] = system: BJAB cells; settings: 10 μM, 12 h

## O=C(C=Cc1ccc2c(c1)CCN2S(=O)(=O)c1ccccc1)NO [MPT0E028, 3-(1-Benzenesulfonyl-2,3-dihydro-1H-indol-5-yl)-N-hydroxy-acrylamide]
[1]
  potency on Akt dephosphorylation relative to SAHA: about 6 times
[2]
  Fold change BID: −1.78
  Fold change STAT1: 1.77
  Fold change STAT2: 1.39
  Fold change STAT3: 1.39
  Fold change STAT4: 4.05
  Fold change STAT5A: −2.15
  Fold change STAT5B: −1.23
  Fold change STAT6: −1.71
  Fold change TP53: −2.06
